Target: Yck2 (Candida albicans, UniProt A0A1D8PKB4)

By UniProt entry, the sequences of proteins in these tests, tags left out. Residues count along the entry.
UniProt A0A1D8PKB4, 37-345 limits assumed: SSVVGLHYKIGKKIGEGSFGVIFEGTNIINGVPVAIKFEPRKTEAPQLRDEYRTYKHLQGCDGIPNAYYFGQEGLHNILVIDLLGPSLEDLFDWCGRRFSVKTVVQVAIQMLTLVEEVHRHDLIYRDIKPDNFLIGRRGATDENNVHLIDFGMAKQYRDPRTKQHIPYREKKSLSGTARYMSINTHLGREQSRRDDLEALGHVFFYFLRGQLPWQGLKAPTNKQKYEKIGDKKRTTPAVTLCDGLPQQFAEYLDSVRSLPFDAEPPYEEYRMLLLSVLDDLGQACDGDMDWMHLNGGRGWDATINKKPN

Row | SMILES | IC50 [µM]
1 | Oc1ccn2nc(-c3ccc(F)cc3)c(-c3ccncc3)c2c1 | 0.11
2 | Oc1ccc2c(-c3ccncc3)c(-c3ccc(F)cc3)nn2c1 | 0.1

From article PMC11760248 (Research Square, 2025)
